Measured values: patent publication US6479067B2, “Methods for treating ovarian cancer, poly (phosphoester) compositions, and biodegradable articles for same” (Guilford Pharmaceuticals, Inc., priority 1999, dated 2002)
Read-outs that look alike come from different tables or passages of the source.

System: melanoma cell line B16/F10
Details: formulation injected on Day 3

Bolus IL-2: interleukin-2 (Chiron) dissolved in 50 μl of isotonic solution, 0.8 × 10^6 IU
Tumor Volume (mm^3 ± SEM) After Tumor Injection (28 days): 1946 ± 505.6 mm^3 | Tumor Volume (mm^3 ± SEM) After Tumor Injection (42 days): 3282 ± 1403.3 mm^3
